This note sets out measurements from ChEMBL document CHEMBL5120941 (ACS Med Chem Lett, 2022).

Data set [1] can be described thus: Drug metabolism in Sprague-Dawley rat assessed as AUC(0 to 24 hrs) of-contezolid at 10 mg/kg, iv by HPLC-MS/MS analysis. The following applies: in vivo.
A short description of data set [2]: Stability of the compound in aqueous solutions at pH 4 to 7.4 measured after 72 hrs. Conditions: buffer, pH 4, 72 h.
Data set [3] in a line: Stability of the compound measured under storage conditions at ambient temperature.
Data set [4] can be described thus: Stability of the compound measured under refrigerated conditions at temperature of 5 to 8 degC.
The nature of data set [5]: Drug metabolism in basic aqueous medium assessed as deacetylated metabolite formation measured at pH >=8. Conditions: buffer.
Data set [6] in a line: Aqueous solubility of the compound in aqueous 5% dextrose at 25 degC. The following applies: buffer.
Data set [7] in a line: Stability of the compound in aqueous solutions measured at pH 8.5 to 9. The following applies: buffer.
Data set [8] can be described thus: Stability of the compound in lyophilized powder form measured at room temperature under anhydrous conditions.

SMILES strings stand for the structures. In brackets after ≈: the same amount, converted by molar mass.

On to `CC(=O)OP(=O)([O-])N(C[C@H]1CN(c2cc(F)c(N3C=CC(=O)CC3)c(F)c2F)C(=O)O1)c1ccon1.[Na+]`, for which the AUC in data set [1] turned out to be 33400 ng·h/mL. Also, the Stability entry in data set [2], in data set [3] and in data set [4] was “Stable” in each case. Besides, the Drug metabolism entry in data set [5] is on record as “Metabolite_Detected”.
Take `COP(=O)(O)N(C[C@H]1CN(c2cc(F)c(N3C=CC(=O)CC3)c(F)c2F)C(=O)O1)c1ccon1`: in data set [6], the concentration in solution (solubility) came to 23 mg/mL (≈ 45.8 mM). In data set [1], the AUC worked out at 700 ng·h/mL.
Take `O=C1C=CN(c2c(F)cc(N3C[C@H](CN(c4ccon4)P(=O)([O-])[O-])OC3=O)c(F)c2F)CC1.[Na+].[Na+]`: the Stability result in data set [7] and in data set [8] was “Stable” throughout. Moreover, the AUC in data set [1] came out at 34000 ng·h/mL.

The term AUC denotes concentration integrated over time. For orientation: solubility means how much of the substance goes into solution per volume.
